Only a part is listed here, and it is no random draw. Calls of active or inactive are those of the source.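 Rule for the calls: active = signal enhancement of 30% or more; inactive = the rest.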
Biological target: E3 ubiquitin-protein ligase Mdm2 (Homo sapiens) (UniProt Q00987)
Assay: MDM2-luciferase reporter signal enhancers, primary screen, MDM2 E3 ligase inhibitor project, cell-based, luminescence, 1536-well (AID 1230);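 note: luminescence tracks abundance of the self-degrading MDM2-luciferase fusion protein; higher signal means inhibition of MDM2 E3 ligase activity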
Conditions: cell-based MDM2 ubiquitination luciferase reporter, 2 h; at 5 µM; active compounds read high; 0 = plate control, 100 = twice control, blank-subtracted
Procedure, shortened: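 Material: stable MDM2–luciferase fusion reporter cells / Quantity: 2000 cells/well / Dosing: single 5 µM compound dose, 0.2% final DMSO / Buffer or medium: DMEM / Schedule: 4 h cell settling then 2 h compound exposure, 37 °C / Detection: luminescence with SteadyLite reagent, 15 min at room temperature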

Sequences of proteins named here, by UniProt entry; tags and fusion partners are left off.
UniProt Q00987, whole entry, looked up: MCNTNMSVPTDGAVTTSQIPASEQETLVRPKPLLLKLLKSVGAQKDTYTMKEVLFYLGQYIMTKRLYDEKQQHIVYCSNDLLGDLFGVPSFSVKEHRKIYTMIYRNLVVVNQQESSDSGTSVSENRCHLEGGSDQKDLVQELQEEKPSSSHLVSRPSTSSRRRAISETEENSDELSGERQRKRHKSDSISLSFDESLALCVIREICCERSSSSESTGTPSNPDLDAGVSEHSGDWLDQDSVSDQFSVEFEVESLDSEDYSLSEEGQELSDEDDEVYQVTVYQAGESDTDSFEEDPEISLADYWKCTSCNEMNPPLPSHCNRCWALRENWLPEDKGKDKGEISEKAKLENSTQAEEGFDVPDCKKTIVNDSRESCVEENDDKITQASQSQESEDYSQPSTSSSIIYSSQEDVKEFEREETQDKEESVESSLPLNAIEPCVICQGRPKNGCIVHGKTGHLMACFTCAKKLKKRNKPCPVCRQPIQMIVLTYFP

SMILES | signal enhancement
Nc1cc(N)c2nonc2c1[N+](=O)[O-] | inactive: -10.3%
CC(C)CC(=O)NC(Sc1ccc(Cl)cc1)C(Cl)(Cl)Cl (stereo unspecified) | inactive: -19.1%
Oc1ccccc1CNc1ccccn1 | inactive: -6.05%
O=C(NC(Sc1ccncn1)C(Cl)(Cl)Cl)c1ccccc1 (stereo unspecified) | inactive: -1.06%
Cc1c2non([O-])c-2c(C)[n+](=O)[n+]1[O-] | inactive: 16.5%
COc1ccccc1OP(=O)(Nc1ccc(C)cn1)Oc1ccccc1OC | inactive: -16.6%
Cc1ccc(OP(=O)(Nc2nccs2)Oc2ccc(C)cc2)cc1 | inactive: -5.72%
CN1CCCC(OC(=O)C(c2ccccc2)c2ccccc2)C1 (stereo unspecified) | inactive: -12.8%
Clc1ccc(Cl)c(NC2=NCC(CBr)S2)c1 (stereo unspecified) | inactive: -7.95%
NC(=O)c1cc([N+](=O)[O-])cc([N+](=O)[O-])c1N | inactive: 15.5%
Cc1ccc(N/C(=N/P(=O)(N2CCOCC2)N2CCOCC2)N2CCOCC2)cc1 | inactive: 1.06%
CCN(N=Nc1nonc1N)c1nonc1N | inactive: -5.79%
Nc1cccc2ccc([As](=O)(O)O)cc12 | inactive: -14.3%
Cc1cc(SC(NC(=O)c2ccc(F)cc2)C(Cl)(Cl)Cl)ncn1 (stereo unspecified) | inactive: -8.98%
CCOP(=O)(Nc1ccccc1)OCC | inactive: -17.7%
Cc1ccc(NP(=O)(Oc2ccccc2F)Oc2ccccc2F)nc1 | inactive: -7.19%
CC(=O)Nc1ccc([As](=O)(O)O)cc1 | inactive: -7.33%
O=C(O)c1ccccc1[As](=O)(O)O | inactive: -12.1%
O=P(Nc1nc2ccc(Cl)cc2s1)(c1ccccc1)c1ccccc1 | inactive: -14.3%
O=[N+]([O-])c1cccc(NC2=NCC(CBr)S2)c1 (stereo unspecified) | inactive: -21.4%
O=C(O)CNc1ccc([As](=O)(O)O)cc1 | inactive: -12.8%
CC(C)(C)C(=O)NC(Sc1ccncn1)C(Cl)(Cl)Cl (stereo unspecified) | inactive: -5.17%
O=[N+]([O-])c1ncn(CCn2ncnc2[N+](=O)[O-])n1 | inactive: -12%
O=C(Nc1cc([As](=O)(O)O)ccc1O)c1ccccc1 | inactive: -14.2%
CC(C)=N/N=C(\N)N[N+](=O)[O-] | inactive: -9.47%

SMILES | signal enhancement
CN(C)C(=O)OCCc1n(C)cc[n+]1C | inactive: 9.69%
CC1CCN(C(=O)Oc2c(Cl)cc(Cl)c3cccnc23)CC1 | inactive: 6.37%
Nc1ccc([As](=O)(O)c2ccc(N)cc2)cc1 | inactive: -26%
C[N+]1=C2C=CC=CC=C2SC12C([N+](=O)[O-])=CC([N+](=O)[O-])=C[C-]2[N+](=O)[O-] (stereo unspecified) | inactive: -8.48%
CCN(/C(=N/P(=O)(N1CCOCC1)N1CCOCC1)N1CCOCC1)c1ccc(OC)cc1 | inactive: 0.95%
CC(=O)N1C2C3N(C(C)=O)C1C1N(C(C)=O)C(C(N1C(C)=O)N3C(C)=O)N2C(C)=O | inactive: -20%
O=[N+]([O-])c1cccc2n[nH]nc12 | inactive: -15.4%
Cc1ccc(NP(=O)(Oc2ccccc2)Oc2ccccc2)nc1 | inactive: -20.1%
O=[N+]([O-])c1cc([N+](=O)[O-])c(CCNc2ccccc2)c([N+](=O)[O-])c1 | inactive: -12.5%
CCc1nc2c(n1)c1c(non1O)c1c2no[n+]1[O-] | inactive: -29%
COc1ccc(C2=NCC(CBr)S2)cc1 (stereo unspecified) | inactive: -6.99%
c1nnnn1CCn1cnnn1 | inactive: 3.71%
O=P(Nc1nccs1)(c1ccccc1)c1ccccc1 | inactive: 8.81%
CC(C)C(=O)NC(Sc1ccccc1)C(Cl)(Cl)Cl (stereo unspecified) | inactive: -6.36%
C(Cc1nn[nH]n1)Cc1nn[nH]n1 | inactive: -1.3%
Nc1ccc([As](=O)(O)c2ccc([N+](=O)[O-])cc2)cc1 | inactive: -7%
O=C(OC1CN2CCC1CC2)c1cccc(Cl)c1 (stereo unspecified) | inactive: -1.95%
O=[N+]([O-])c1ncn(CCn2cnc([N+](=O)[O-])n2)n1 | inactive: -1.31%
CC(=O)NC(SC(=S)N(C)C)C(Cl)(Cl)Cl (stereo unspecified) | active: 57.4%
O=[As](O)(c1ccccc1)c1ccc(O)cc1 | inactive: -7.87%
O=P(Nc1nc2ccccc2s1)(c1ccccc1)c1ccccc1 | inactive: -1.9%
C[C@H]1OP(=O)(Oc2ccccc2)[C@H](O)[C@H](O)[C@H]1N=[N+]=[N-] (stereo partly specified) | inactive: 0.17%
O=P(Nc1ccccn1)(c1ccc(Br)cc1)c1ccc(Br)cc1 | inactive: -4.24%
Cc1ccccc1OP(=O)(Nc1ccccn1)Oc1ccccc1C | inactive: 2.3%
O=c1c2cc([N+](=O)[O-])ccc2[nH]c2c([N+](=O)[O-])cc([N+](=O)[O-])cc12 | inactive: -57.6%

SMILES | signal enhancement
CN(C)C(=O)Oc1noc2ccccc12 | inactive: 1.65%
COC(=O)c1cc2c(s1)N=C(c1ccccc1)N(C)P2(=O)N1CCOCC1 (stereo unspecified) | inactive: -8.82%
Cc1ccc(OP(=O)(Nc2ccccn2)Oc2ccc(C)cc2)cc1 | inactive: -4.39%
CC(=O)NC(SC(=S)N(CC(C)C)CC(C)C)C(Cl)(Cl)Cl (stereo unspecified) | inactive: -87.3%
CCC(=O)N1C2C3N(C(=O)CC)C1C1N(C(=O)CC)C(C(N1C(=O)CC)N3C(=O)CC)N2C(=O)CC | inactive: -50.4%
O=C(NC1CCS(=O)(=O)C1)NP(=S)(Oc1ccccc1)Oc1ccccc1 (stereo unspecified) | inactive: -7.16%
CCNC(=S)/N=C(\N)N[N+](=O)[O-] | inactive: -9.77%
c1ccc(-c2nn[nH]n2)c(-c2nn[nH]n2)c1 | inactive: 11.7%
CCOC(=O)NC(Sc1ccccc1)C(Cl)(Cl)Cl (stereo unspecified) | inactive: -20.4%
Cc1ccc(NP(=O)(Oc2cccc(C)c2)Oc2cccc(C)c2)nc1 | inactive: -11.9%
CC(=O)Nc1ccc([As](=O)(O)O)c(O)c1 | inactive: -9.44%
CC(=O)Nc1ccc(Oc2c([N+](=O)[O-])cc([N+](=O)[O-])cc2[N+](=O)[O-])cc1 | inactive: -5.04%
C[C@H]1OP(=O)(Oc2ccccc2)C[C@@H]2O[C@@H]21 (stereo partly specified) | inactive: 7.71%
C[C@@H]1C=CCP(=O)(Oc2ccccc2)O1 (stereo partly specified) | inactive: 16.2%
CC(C)(C)C(=O)NC(Sc1ccccc1)C(Cl)(Cl)Cl (stereo unspecified) | inactive: -12.1%
O=P1(Nc2nc3ccc(Cl)cc3s2)COc2ccccc2O1 (stereo unspecified) | inactive: -11.8%
CCOc1ccc(C2=NCC(CBr)S2)cc1 (stereo unspecified) | inactive: -3.45%
COc1cc(C2NCCC3(OCCO3)C2(C)C)cc(OC)c1OC (stereo unspecified) | inactive: -16%
CCOP(=O)(Nc1cccc2ccccc12)OCC | inactive: -10.1%
Nc1cccc2c([As](=O)(O)O)cccc12 | inactive: -30%
Cc1ccc(NCCc2c([N+](=O)[O-])cc([N+](=O)[O-])cc2[N+](=O)[O-])cc1 | inactive: 2.87%
Cc1cccc(OCC(=O)OC2CN3CCC2CC3)c1 (stereo unspecified) | inactive: -3.59%
O=[As](O)(c1cccc(O)c1)c1cccc(O)c1 | inactive: -8.08%
O=[As](O)(O)c1cccnc1 | inactive: -8.99%
COc1cc(C(=O)NCC2(N3CCOCC3)CCCCC2)cc(Cl)c1OC(C)C | inactive: -3.01%

SMILES | signal enhancement
O=C(OC1CN2CCC1CC2)c1ccc(Cl)cc1 (stereo unspecified) | inactive: -10.7%
O=[N+]([O-])c1ccc2c(c1)nnn2O | inactive: -13.7%
CCOP1(=S)c2c(C)nn(CCC#N)c2N=C(c2ccc(F)cc2)N1C (stereo unspecified) | inactive: -18.2%
CN(C(=O)Cc1ccccc1)[C@@H]1CC[C@]2(CCCO2)C[C@H]1N1CCCC1 | inactive: 0.3%
NC(=O)Nc1ccc([As](=O)(O)O)cc1 | inactive: -0.85%
O=C(O)COc1ccc([As](=O)(O)O)cc1[N+](=O)[O-] | inactive: -14.6%
Nc1ccccc1[As](=O)(O)c1ccccc1 | inactive: -14.3%
CS(=O)(=O)c1cc([N+](=O)[O-])c2no[n+]([O-])c2c1 | inactive: -8.49%
CCOP1(=S)c2c(C)nn(CCC#N)c2N=C(c2ccccc2F)N1C (stereo unspecified) | inactive: 2.68%
O=P(Nc1nccs1)(Oc1ccccc1)Oc1ccccc1 | inactive: -18%
O=P(Nc1nccs1)(c1ccccc1)c1nc2ccccc2s1 (stereo unspecified) | inactive: 6.83%
Cc1ccc(OCC(=O)OC2CN3CCC2CC3)cc1 (stereo unspecified) | inactive: -10.1%
O=P1(Nc2ccc(Br)cn2)COc2ccccc2OC1 | inactive: -14.8%
Nc1cccc([As](=O)(O)c2ccccc2)c1 | inactive: -6.24%
O=P1(Nc2ncccn2)COc2ccccc2OC1 | inactive: -9.58%
O=C(/C=C/c1ccccc1)OC1CN2CCC1CC2 (stereo unspecified) | inactive: 5.38%
CN(C)C1(CNC(=O)c2ccc(S(C)(=O)=O)cc2)CCCCC1 | inactive: -6.23%
Cc1nn(-c2ccccc2)c2c1P(=O)(N1CCOCC1)N(C)C(c1ccccc1)=N2 (stereo unspecified) | inactive: -18.2%
CC1CCC(C(C)C)C(OP(=O)(Nc2ccccn2)c2ccccc2)C1 (stereo unspecified) | inactive: -2.1%
O=[As](O)(c1ccccc1Br)c1ccccc1Br | inactive: -8.19%
CC(C)/C=N\N=C(\N)N[N+](=O)[O-] | inactive: 0.26%
Clc1n[nH]nc1-c1nn[nH][15n]1 | inactive: -8.22%
CC(C)(C)C(=O)NC(Sc1ncccn1)C(Cl)(Cl)Cl (stereo unspecified) | inactive: -15.3%
O=P1(Nc2ccccn2)COc2ccccc2OC1 | inactive: -7.05%
CCOC(=O)c1ccc(NC(=O)C(C)(CCl)SC)cc1 (stereo unspecified) | inactive: -3.28%

SMILES | signal enhancement
O=C(COc1ccccc1)OC1CN2CCC1CC2 (stereo unspecified) | inactive: -5.93%
COP1(=S)c2c(C)nn(CCC#N)c2N=C(c2ccc(F)cc2)N1C (stereo unspecified) | inactive: 4.48%
O=[N+]([O-])c1ccc(Nc2ccc(Oc3ccc([N+](=O)[O-])cc3[N+](=O)[O-])cc2)c([N+](=O)[O-])c1 | inactive: -6.89%
Cc1cc(SC(NC=O)C(Cl)(Cl)Cl)ncn1 (stereo unspecified) | inactive: -17%
O=P(Nc1ccccn1)(c1cccc2ccccc12)c1cccc2ccccc12 | inactive: -12.8%
CCOC(=O)Nc1cccc([As](=O)(O)O)c1 | inactive: -13%
Cc1cc(SC(NC(=O)c2ccccc2)C(Cl)(Cl)Cl)nc(C(C)C)n1 (stereo unspecified) | inactive: -12%
CCOC(=O)Nc1ccc([As](=O)(O)O)c(O)c1 | inactive: 2.93%
CC(C)NC(=O)NP(=O)(Oc1ccccc1)Oc1ccccc1 | inactive: -8.78%
CCN(CC)C(=S)SC(NC=O)C(Cl)(Cl)Cl (stereo unspecified) | inactive: 5.86%
O=[N+]([O-])c1cc([N+](=O)[O-])c(-c2ccn[nH]2)s1 | inactive: 2.55%
CC(C)c1ccc(OP(=O)(Nc2ccccn2)Oc2ccccc2F)cc1 (stereo unspecified) | inactive: -13.7%
Cc1ccc2nc3c(c(C)c2c1)CC(C(Cl)Cl)S3 (stereo unspecified) | inactive: -7.36%
Cc1ccc(OP(=O)(Nc2ccc([N+](=O)[O-])cn2)Oc2ccc(C)cc2)cc1 | inactive: -8.42%
C[As](=O)(O)c1cccc(C(=O)O)c1 | inactive: -1.71%
O=[As](O)(c1ccc(O)cc1)c1ccccc1O | inactive: -12.7%
COc1ccc(N/C(=N/P(=O)(N2CCOCC2)N2CCOCC2)N2CCOCC2)cc1 | inactive: -2.28%
COc1ccc2nc(NP(=O)(c3ccccc3)c3ccccc3)sc2c1 | inactive: -19.4%
COc1cc(I)ccc1[As](=O)(O)O | inactive: -5.63%
O=C(OC1CN2CCC1CC2)C12CC3CC(CC(C3)C1)C2 (stereo unspecified) | inactive: 8.36%
Cc1cc(=O)[nH]c(N[N+](=O)[O-])n1 | inactive: -3.17%
